Assay results reported in patent US20250154219A1, “PEPTIDE ANALOGS” (Adepthera LLC, priority 2017, published 2025).

Sequences of proteins named here, by UniProt entry; tags and fusion partners are left off. Residues count along the entry.
UniProt O60895, 43-175: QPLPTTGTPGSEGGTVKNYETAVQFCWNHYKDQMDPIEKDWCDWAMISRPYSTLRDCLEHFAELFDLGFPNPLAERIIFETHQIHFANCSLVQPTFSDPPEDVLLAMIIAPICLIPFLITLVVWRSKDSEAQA
UniProt Q16602, 23-461: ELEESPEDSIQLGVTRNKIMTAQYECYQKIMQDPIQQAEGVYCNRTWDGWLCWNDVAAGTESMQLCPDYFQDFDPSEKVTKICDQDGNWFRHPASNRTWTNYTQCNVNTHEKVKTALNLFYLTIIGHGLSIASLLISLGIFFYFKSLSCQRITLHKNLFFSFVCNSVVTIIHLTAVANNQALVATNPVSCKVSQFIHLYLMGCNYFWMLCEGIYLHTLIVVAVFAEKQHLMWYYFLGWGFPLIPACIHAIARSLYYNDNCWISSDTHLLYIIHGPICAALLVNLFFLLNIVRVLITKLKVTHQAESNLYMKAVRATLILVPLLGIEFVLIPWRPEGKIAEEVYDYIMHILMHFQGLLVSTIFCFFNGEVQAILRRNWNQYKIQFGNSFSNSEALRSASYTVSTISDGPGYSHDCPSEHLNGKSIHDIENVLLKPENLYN
UniProt O60894, 27-148: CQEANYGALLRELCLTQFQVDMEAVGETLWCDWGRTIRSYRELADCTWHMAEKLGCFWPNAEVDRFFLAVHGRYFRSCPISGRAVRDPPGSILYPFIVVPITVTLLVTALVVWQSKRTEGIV
UniProt O60896, 24-148: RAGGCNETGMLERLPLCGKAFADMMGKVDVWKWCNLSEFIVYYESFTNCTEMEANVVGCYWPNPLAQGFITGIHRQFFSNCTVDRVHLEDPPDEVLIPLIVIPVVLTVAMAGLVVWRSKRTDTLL

How the values were obtained:
Type in all cases: cell-based
CLR/RAMP2 receptor [1] = target: T1, CLR/RAMP2 receptor (Homo sapiens, UniProt O60895+Q16602); assay: CLR/RAMP2 arrestin receptor-activation assay (agonist mode); details: CHO-K1 cells stably expressing CLR/RAMP2;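 note: agonist dose-response in recombinant cell lines stably expressing each receptor complex, duplicate wells over 10 threefold dilutions from a top concentration of 1.0 µM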
CLR/RAMP1 receptor [2] = target: T2, CLR/RAMP1 receptor (Homo sapiens, UniProt O60894+Q16602); assay: CLR/RAMP1 cAMP receptor-activation assay (agonist mode); details: 1321N1 cells stably expressing CLR/RAMP1;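 note: Dose–response over 10 threefold dilutions from 1.0 µM, run in duplicate, luminescent cAMP detection (RLU), activity scaled between vehicle control (0%) and maximal control (100%)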
CLR/RAMP1 receptor [3] = target: T2, CLR/RAMP1 receptor; assay: CLR/RAMP1 cAMP assay, antagonist mode (CGRP-stimulated); details: CGRP-stimulated (EC80) CLR/RAMP1 receptor activation
CLR/RAMP3 receptor = CLR/RAMP3 receptor (Homo sapiens, UniProt O60896+Q16602); assay: CLR/RAMP3 cAMP receptor-activation assay (agonist mode); details: CHO-K1 cells stably expressing CLR/RAMP3
CLR/RAMP2 receptor [4] = target: T1, CLR/RAMP2 receptor; assay: CLR/RAMP2 arrestin assay, antagonist mode (ADM-stimulated); details: ADM-stimulated (EC80) CLR/RAMP2 receptor activation
apelin receptor AGTRL1 = target: T3, apelin receptor AGTRL1 (Homo sapiens, UniProt P35414); assay: AGTRL1 cAMP assay
T3 sequence (P35414 1-380): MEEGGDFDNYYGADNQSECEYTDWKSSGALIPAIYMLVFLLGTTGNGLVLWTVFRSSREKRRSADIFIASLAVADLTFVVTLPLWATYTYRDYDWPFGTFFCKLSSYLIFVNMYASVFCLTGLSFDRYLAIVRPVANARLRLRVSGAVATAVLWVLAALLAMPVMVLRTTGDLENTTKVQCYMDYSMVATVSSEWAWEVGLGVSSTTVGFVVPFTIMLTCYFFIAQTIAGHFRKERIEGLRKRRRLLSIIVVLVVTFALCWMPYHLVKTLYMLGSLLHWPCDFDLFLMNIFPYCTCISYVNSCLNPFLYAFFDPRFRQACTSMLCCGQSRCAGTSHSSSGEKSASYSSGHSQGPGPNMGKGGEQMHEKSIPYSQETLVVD

[5] = target: type 1 angiotensin II receptor AGTR1 (Homo sapiens, UniProt P30556); assay: AGTR1 calcium flux assay, antagonist mode
[6] = target: T4, bradykinin receptor 1 (BDKRB1) (Homo sapiens, UniProt P46663); assay: BDKRB1 calcium flux assay, antagonist mode
T4 sequence (P46663 1-353): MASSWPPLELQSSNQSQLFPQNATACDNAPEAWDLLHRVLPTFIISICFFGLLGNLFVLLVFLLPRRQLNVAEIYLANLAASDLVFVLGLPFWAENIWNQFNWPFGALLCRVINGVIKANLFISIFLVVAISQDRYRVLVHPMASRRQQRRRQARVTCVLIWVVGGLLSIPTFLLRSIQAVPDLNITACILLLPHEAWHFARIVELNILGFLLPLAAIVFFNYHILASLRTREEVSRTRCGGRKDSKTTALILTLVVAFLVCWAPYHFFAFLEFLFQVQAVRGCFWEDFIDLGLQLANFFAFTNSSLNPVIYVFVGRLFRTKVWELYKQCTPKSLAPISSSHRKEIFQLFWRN

Substance | EC50 (CLR/RAMP2 receptor [1]) [nM] | EC50 (CLR/RAMP1 receptor [2]) [nM] | further results
Ace-PEG3-K(Hexadecanoyl-isoGlu)GCRFGTCTVQKLAHQIYQFTDKDKDNVAPRSKISPQGY-NH2 [SEQ ID NO: 151] | 1.4 | 0.5 | 
Ace-PEG12-PEG12-K([19-carboxy-nonadecanoyl]-isoGlu-PEG3)GCRFGTCTVQKLAHQIYQFTDKDKDNVAPRSKISPQGY-NH2 [SEQ ID NO: 150] | 1.9 | 2.4 | 
Ace-YGGFLRRIRPKLK-miniPEG-K(Pal)VQKLSAPVDPSSPHSY-NH2 [SEQ ID NO: 146] |  |  | IC50 (CLR/RAMP1 receptor [3]): < 0.5 nM
miniPEG-K(PAL)GCRFGTCTVQKLAHQIYQFTDKDKDNVDPSSPHSY-NH2 [SEQ ID NO: 94] | 1.3 | 11 | 
miniPEG-K(PAL)GCRFGTCTVQKLAHQIYQFTDKDKDNVAPRSKISPQGY-NH2 [SEQ ID NO: 69] | 0.6 |  | EC50 (CLR/RAMP3 receptor): 0.6 nM
miniPEG-K(PAL)GCRFGTCTVQKLAHQIYQFTDKDVAPRSKISP(D-Gln)GY-NH2 [SEQ ID NO: 214] | 0.4 | 1.1 | 
miniPEG-K(PAL)GCRFGTCTVQKLAHQIYQFTDKDVAPRSKISPQGY-NH2 [SEQ ID NO: 101] | 0.3 |  | EC50 (CLR/RAMP3 receptor): 0.5 nM
Pyr(glu)-LYENKPRRPYIL-miniPEG-K(Pal)VQKLSAPVDPSSPHSY-NH2 [SEQ ID NO: 224] |  | 0.3 | IC50 (CLR/RAMP2 receptor [4]): 1.5 nM; IC50 (CLR/RAMP1 receptor [3]): < 0.5 nM
AcePEG3--K([17-carboxy-heptadecanoyl]-isoGlu-Peg3-Peg3)GCRFGTCTVQKLAHQIYQFTDKDKDNVAPRSKISPQGY-NH2 [SEQ ID NO: 158] | 3.6 | 5.7 | 
Ace-PEG3-K([19-carboxy-nonadecanoyl]-isoGlu)GCRFGTCTVQKLAHQIYQFTDKDKDNVAPRSKISPQGY-NH2 [SEQ ID NO: 155] | 1.8 | 0.6 | 
Pyr(glu)-LYENKPRRPYIL-miniPEG-K(PAL)GCRFGTCTVQKLAHQIYQFTDKDVAPRSKISPQGY-NH2 [SEQ ID NO: 223] | 1 | 0.8 | 
Ace-PEG3-K([19-carboxy-nonadecanoyl]-PEG3-isoGlu)GCRFGTCTVQKLAHQIYQFTDKDKDNVAPRSKISPQGY-NH2 [SEQ ID NO: 156] | 1.2 | 0.8 | 
miniPEG-K(PAL)GCRFGTC(D-Thr)VQKLAHQIYQFTDKDVAPRSKISPQGY-NH2 [SEQ ID NO: 210] | 1.4 | 7.1 | 
miniPEG-K(PAL)GCRFGTCT(D-Val)QKLAHQIYQFTDKDVAPRSKISPQGY-NH2 [SEQ ID NO: 211] | 0.9 | 8 | 
Ace-Y(D-Ala)GF(D-Leu)-miniPEG-K(Pal)VQKLSAPVDPSSPHSY-NH2 [SEQ ID NO: 145] |  |  | IC50 (CLR/RAMP1 receptor [3]): < 0.5 nM
Ace-PEG3-K(Hexadecanoyl-PEG3-isoGlu)GCRFGTCTVQKLAHQIYQFTDKDKDNVAPRSKISPQGY-NH2 [SEQ ID NO: 154] | 1.7 | 1.6 | 
Ace-RPKPQQFFGLM-miniPEG-K(PAL)GCRFGTCTVQKLAHQIYQFTDKDSAPVDPSSPHSY-NH2 [SEQ ID NO: 147] | 0.71 | 0.14 | 

Substance | EC50 (CLR/RAMP2 receptor [1]) [nM] | EC50 (CLR/RAMP1 receptor [2]) [nM] | further results
(G1p)RPRLSHKGPMPF [Apelin 13, reference compound] |  |  | EC50 (apelin receptor AGTRL1): 0.6 nM; EC50 (apelin receptor AGTRL1; listed as apelin-13): 0.57 nM
Ace-NFVPTNVGPFAF-NH2 [SEQ ID NO: 144] |  |  | IC50 (CLR/RAMP2 receptor [4]): > 10000 nM
miniPEG-K(PAL)GCRFGTCTVQKLAHQIYQFTDKDKDNVAPVDPSSPHSY-NH2 [SEQ ID NO: 50] | 1.2 | 1.2 | 
(Glp)RPRLSHKGP(Nle)PF-miniPEG-K(PAL)GCRFGTCTVQKLAHQIYQFTDKDVAPRSKISPQGY-NH2 [SEQ ID NO: 228] | 2 | 0.6 | EC50 (apelin receptor AGTRL1): 38.5 nM and 38 nM
miniPEG-K(PAL)GCRFGTCTVQKLAHQIYQFTDKDKDSAPVDPSSPHSY-NH2 [SEQ ID NO: 46] | 0.5 | 0.7 | 
Sar-RVYVHPA-miniPEG-K(PAL)GCRFGTCTVQKLAHQIYQFTDKDVAPRSKISPQGY-NH2 [SEQ ID NO: 234] | 1 | 0.3 | IC50 [5]: 19.9 nM and 20 nM
miniPEG-K(PAL)GCRFGTCTVQKLAHQIYQFTDKGRQDSAPVDPSSPHSY-NH2 [SEQ ID NO: 68] | 7 |  | 
miniPEG-K(PAL)CRFGTCTVQKLAHQIYQFTDKDKDNSAPVDPSSPHSY-NH2 [SEQ ID NO: 43] | 0.2 | 0.5 | 
miniPEG-K(PAL)GCRFGTCTVQKLAHQIYQFTDKDKQDSAPVDPSSPHSY-NH2 [SEQ ID NO: 51] | 0.3 | 0.2 | 
miniPEG-K(PAL)GCRFGTCTVQKLAHQIYQFTDKDKSAPVDPSSPHSY-NH2 [SEQ ID NO: 47] | 0.4 | 1.5 | 
Ace-PEG3-K([19-carboxy-nonadecanoyl]-isoGlu-PEG3)GCRFGTCTVQKLAHQIYQFTDKDVAPRSKISPQGY-NH2 [SEQ ID NO: 159] | 1.1 | 1.3 | 
Ace-PEG3-K([19-carboxy-nonadecanoyl]-isoGlu-Peg3-Peg3)GCRFGTCTVQKLAHQIYQFTDKDKDNVAPRSKISPQGY-NH2 [SEQ ID NO: 157] | 1.8 | 2.8 | 
Ace-PEG3-K(Hexadecanoyl-isoGlu-PEG3)GCRFGTCTVQKLAHQIYQFTDKDKDNVAPRSKISPQGY-NH2 [SEQ ID NO: 152] | 2.4 | 2.5 | 
Ace-KRPPGFS-DβNal-I-miniPEG-K(PAL)GCRFGTCTVQKLAHQIYQFTDKDVAPRSKISPQGY-NH2 [SEQ ID NO: 231] | 1 | 0.8 | IC50 [6]: 79.4 nM and 79 nM
miniPEG-K(PAL)GCRFGTCTVQKLAHQIYQFTDKDVAPR(D-Ser)KISPQGY-NH2 [SEQ ID NO: 213] | 0.7 | 0.7 | 
Ace-PEG3-K(Hexadecanoyl-isoGlu-PEG3-PEG3)GCRFGTCTVQKLAHQIYQFTDKDKDNVAPRSKISPQGY-NH2 [SEQ ID NO: 153] | 3.5 | 7.3 | 

“And” between values parts separate entries of the source, which are not always exact repeats. Equal entries are not always repeated. Where two headings read alike, the source gives them in different places.
